Measured values reported in ChEMBL document CHEMBL4364254 (J Med Chem, 2019).

Chains of the proteins cited; added tags and fusions are not shown. Lines headed by an entry give the natural chain unless they say otherwise; changes in a name come on top.
UniProt P21554, whole entry: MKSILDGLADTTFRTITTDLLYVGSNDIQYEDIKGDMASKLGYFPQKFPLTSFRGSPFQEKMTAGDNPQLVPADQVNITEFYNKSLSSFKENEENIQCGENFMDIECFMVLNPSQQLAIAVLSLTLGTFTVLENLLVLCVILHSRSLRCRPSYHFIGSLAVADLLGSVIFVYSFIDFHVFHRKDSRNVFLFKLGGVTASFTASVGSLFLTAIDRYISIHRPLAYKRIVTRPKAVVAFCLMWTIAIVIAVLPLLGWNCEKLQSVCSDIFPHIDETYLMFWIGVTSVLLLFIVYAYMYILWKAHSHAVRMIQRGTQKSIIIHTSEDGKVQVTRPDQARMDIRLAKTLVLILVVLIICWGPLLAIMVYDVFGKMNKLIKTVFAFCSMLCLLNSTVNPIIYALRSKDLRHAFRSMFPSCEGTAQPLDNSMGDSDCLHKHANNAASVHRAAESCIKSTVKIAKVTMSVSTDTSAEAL
UniProt P34972, whole entry: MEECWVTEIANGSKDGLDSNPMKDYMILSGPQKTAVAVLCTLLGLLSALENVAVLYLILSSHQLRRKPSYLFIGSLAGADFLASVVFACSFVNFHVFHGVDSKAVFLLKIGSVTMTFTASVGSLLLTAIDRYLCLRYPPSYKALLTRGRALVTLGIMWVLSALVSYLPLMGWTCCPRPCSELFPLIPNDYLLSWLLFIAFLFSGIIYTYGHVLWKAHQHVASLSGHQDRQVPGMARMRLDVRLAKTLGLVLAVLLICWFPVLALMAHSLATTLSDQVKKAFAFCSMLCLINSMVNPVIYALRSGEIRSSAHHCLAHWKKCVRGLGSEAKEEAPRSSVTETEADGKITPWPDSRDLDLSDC
UniProt Q12809: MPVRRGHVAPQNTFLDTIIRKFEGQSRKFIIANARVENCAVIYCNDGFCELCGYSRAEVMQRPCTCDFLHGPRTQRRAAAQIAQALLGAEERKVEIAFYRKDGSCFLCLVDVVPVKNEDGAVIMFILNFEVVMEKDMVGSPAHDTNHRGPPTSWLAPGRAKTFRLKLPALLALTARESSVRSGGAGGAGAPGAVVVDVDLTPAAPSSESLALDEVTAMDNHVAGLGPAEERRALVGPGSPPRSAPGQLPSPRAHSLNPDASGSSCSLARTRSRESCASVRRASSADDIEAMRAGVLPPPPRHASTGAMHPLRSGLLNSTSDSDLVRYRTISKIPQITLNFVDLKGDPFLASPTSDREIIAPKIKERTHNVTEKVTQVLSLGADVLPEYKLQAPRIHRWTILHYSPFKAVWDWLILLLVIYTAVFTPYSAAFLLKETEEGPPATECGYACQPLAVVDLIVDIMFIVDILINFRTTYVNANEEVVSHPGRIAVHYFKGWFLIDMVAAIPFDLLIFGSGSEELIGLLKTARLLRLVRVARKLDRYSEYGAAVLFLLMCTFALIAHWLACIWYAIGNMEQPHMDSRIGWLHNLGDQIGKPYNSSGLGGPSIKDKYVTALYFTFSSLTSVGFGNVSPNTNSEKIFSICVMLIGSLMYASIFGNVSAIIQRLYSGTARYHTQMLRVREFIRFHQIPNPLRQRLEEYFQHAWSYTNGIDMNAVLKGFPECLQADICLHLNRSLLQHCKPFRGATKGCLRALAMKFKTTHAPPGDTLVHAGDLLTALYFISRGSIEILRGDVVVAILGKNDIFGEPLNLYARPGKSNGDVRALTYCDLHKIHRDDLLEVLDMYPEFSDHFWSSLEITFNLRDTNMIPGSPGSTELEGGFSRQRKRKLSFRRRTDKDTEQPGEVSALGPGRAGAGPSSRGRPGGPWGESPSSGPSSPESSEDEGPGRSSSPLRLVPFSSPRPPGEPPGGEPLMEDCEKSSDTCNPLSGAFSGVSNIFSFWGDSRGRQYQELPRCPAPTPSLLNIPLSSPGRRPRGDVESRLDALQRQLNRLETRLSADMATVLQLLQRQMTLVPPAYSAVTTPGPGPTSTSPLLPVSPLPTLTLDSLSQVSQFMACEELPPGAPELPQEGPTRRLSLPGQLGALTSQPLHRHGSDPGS

Assays:
[1] = target: T1, Cannabinoid receptor 1 (Homo sapiens, UniProt P21554); assay: Displacement of [3H]CP55940 from human CB1 receptor expressed in HEK293 cell membranes
[2] = target: T1, Cannabinoid receptor 1; assay: Inverse agonist activity at human CB1 receptor expressed in CHOK1 cells co-expressing Galphaq16 assessed as reduction in CP55940-induced intracellular calcium mobilization by calcein-4 AM dye based fluorescence assay; format: functional, cell-based
[3] = Clearance in human liver microsomes at 1 uM incubated for 120 mins in presence of NADPH by chromatographic method; format: ADME, Microsome; conditions: 2 h
[4] = Half life in human liver microsomes at 1 uM in presence of NADPH by chromatographic method; format: ADME, Microsome
[5] = target: T2, Cannabinoid receptor 2 (Homo sapiens, UniProt P34972); assay: Displacement of [3H]CP55940 from human CB2 receptor expressed in HEK293 cell membranes
Summary of the method: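 Competition binding against [3H]CP55940 in membranes from HEK cells overexpressing human CB1 or CB2. Ki values are derived from displacement, and the same membrane format is used for both receptors. Values are averages of three to six independent measurements.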

[6] = target: T3, Voltage-gated inwardly rectifying potassium channel KCNH2 (Homo sapiens, UniProt Q12809)
[7] = species on record: Homo sapiens; assay: Selectivity ratio of Ki for displacement of [3H]CP55940 from human CB2 receptor expressed in HEK293 cell membranes to Ki for displacement of [3H]CP55940 from human CB1 receptor expressed in HEK293 cell membranes
[8] = target: T3, Voltage-gated inwardly rectifying potassium channel KCNH2; assay: Displacement of [3H]dofetilide from recombinant human ERG after 60 mins by scintillation counting analysis
[9] = target: T2, Cannabinoid receptor 2; assay: Displacement of [3H]WIN55212-2 from recombinant human CB2 receptor after 120 mins by scintillation counting analysis

SMILES	Ki [1]	CLH [3]	half-life at 1 µM [4]	Ki [5]	further results
COCCN(C)C(=O)NC1CCN(c2ncnc3c2nc(-c2ccccc2Cl)n3-c2ccc(Cl)cc2)CC1	0.26 nM	–	–	–	–
O=C(NCc1ccccc1F)NC1CCN(c2ncnc3c2nc(-c2ccccc2Cl)n3-c2ccc(Cl)cc2)CC1	2.4 nM	–	–	–	–
O=C(NC1CCN(c2ncnc3c2nc(-c2ccccc2Cl)n3-c2ccc(Cl)cc2)CC1)NC1CCC(F)(F)CC1	–	–	–	–	Ke [2]: 79 nM
CCCN(C)C(=O)NC1CCN(c2ncnc3c2nc(-c2ccccc2Cl)n3-c2ccc(Cl)cc2)CC1	0.9 nM	–	–	–	–
CC1(NC(=O)Nc2ccccc2F)CCN(c2ncnc3c2nc(-c2ccccc2Cl)n3-c2ccc(Cl)cc2)CC1	–	16 µL/min/mg	1.28 h	–	–
O=C(NCC1CCCC1)NC1CCN(c2ncnc3c2nc(-c2ccccc2Cl)n3-c2ccc(Cl)cc2)CC1	19 nM	–	–	–	–
O=C(Nc1ccc(F)cc1F)NC1CCN(c2ncnc3c2nc(-c2ccccc2Cl)n3-c2ccc(Cl)cc2)CC1	–	–	–	> 10000 nM	Ki [6]: > 10000 nM
O=C(NC1CCCC1)NC1CCN(c2ncnc3c2nc(-c2ccccc2Cl)n3-c2ccc(Cl)cc2)CC1	3 nM	–	–	–	–
CC1(NC(=O)NS(=O)(=O)c2ccccc2F)CCN(c2ncnc3c2nc(-c2ccccc2Cl)n3-c2ccc(Cl)cc2)CC1	–	15 µL/min/mg	1.4 h	–	Ke [2]: 7 nM
O=C(Nc1ccccc1F)NC1CCN(c2ncnc3c2nc(-c2ccccc2Cl)n3-c2ccc(Cl)cc2)CC1	–	–	–	> 10000 nM	–
CC1(NC(=O)Nc2ccc(OC(F)F)nc2)CCN(c2ncnc3c2nc(-c2ccccc2Cl)n3-c2ccc(Cl)cc2)CC1	–	24 µL/min/mg	0.85 h	–	–
O=C(Nc1ccccc1)NC1CCN(c2ncnc3c2nc(-c2ccccc2Cl)n3-c2ccc(Cl)cc2)CC1	–	11 µL/min/mg	1.92 h	> 10000 nM	Ke [2]: 30 nM
CC(C)CN(C)C(=O)NC1CCN(c2ncnc3c2nc(-c2ccccc2Cl)n3-c2ccc(Cl)cc2)CC1	0.8 nM	–	–	–	–
O=C(Nc1ccc(C(F)(F)F)nc1)NC1CCN(c2ncnc3c2nc(-c2ccccc2Cl)n3-c2ccc(Cl)cc2)CC1	51 nM	–	–	> 10000 nM	Ke [2]: 37 nM
O=C(Nc1ccc(F)cc1)NC1CCN(c2ncnc3c2nc(-c2ccccc2Cl)n3-c2ccc(Cl)cc2)CC1	–	–	–	6500 nM	–
CC1(NC(=O)NC2CCC(F)(F)CC2)CCN(c2ncnc3c2nc(-c2ccccc2Cl)n3-c2ccc(Cl)cc2)CC1	–	5 µL/min/mg	4.65 h	–	Ratio Ki [7]: > 588
O=C(NCc1ccc(F)cc1)NC1CCN(c2ncnc3c2nc(-c2ccccc2Cl)n3-c2ccc(Cl)cc2)CC1	–	–	–	> 10000 nM	–
O=C(NC1CCN(c2ncnc3c2nc(-c2ccccc2Cl)n3-c2ccc(Cl)cc2)CC1)NS(=O)(=O)c1ccccc1F	380 nM	–	–	–	–
O=C(Nc1ccc(OC(F)F)nc1)NC1CCN(c2ncnc3c2nc(-c2ccccc2Cl)n3-c2ccc(Cl)cc2)CC1	22 nM	3 µL/min/mg	7.05 h	> 10000 nM	EC50 [8]: > 10000 nM; IC50 [8]: > 10000 nM; Ki [6]: > 10000 nM; EC50 [9]: > 10000 nM; IC50 [9]: > 10000 nM
